According to patent US20230295159A1, “ATX INHIBITOR, AND PREPARATION METHOD THEREFOR AND USE THEREOF” (SUZHOU ARK BIOPHARMACEUTICAL CO., LTD., priority 2020, published 2023):

Tested on: Chinese hamster ovary cells (CHO-WBL)
Test: In vitro micronucleus assay with Chinese hamster ovary cells
Description: In the major micronucleus assay, CHO-WBL cells were exposed to at least 3 concentrations of the test object, while vehicle control group and positive control group were set up, with 2 replicated wells for each dose group. In inactivated test system, the administration lasted for 3 and 24 hours, and in S9 activated test system, the exposure to the test object lasted for 3 hours.
When choosing the highest dose for micronucleus frequency assay, the cytotoxicity of dose group of the test object should not substantially exceed 50% of that of the corresponding vehicle control group.
On the premise that the test is valid, the test results are evaluated according to the following criteria:
If the test object simutaneously meets the following criteria, it can be considered as positive:
A significant increase in micronucleus frequency is observed in one or more concentration groups.
If none of the above three points is met, the test object can be considered as negative.

For Mitomycin C, which “% binuclear cells containing micronucleus” value (3-hour administration without metabolic activation, 0.3 µg/ml) is on record?
The value was 11.85%.

And the “% binuclear cells containing micronucleus” value (24-hour administration without metabolic activation, 0.1 µg/ml)?
The value was 22.8%.
